# Assay results from US20080171706A1, “Anti-Adhesive Compounds to Prevent and Treat Bacterial Infections” (priority 2004, published 2008).
# By UniProt entry, the sequences of proteins in these tests, tags left out. Residues count along the entry.
# UniProt P08191, 22-179: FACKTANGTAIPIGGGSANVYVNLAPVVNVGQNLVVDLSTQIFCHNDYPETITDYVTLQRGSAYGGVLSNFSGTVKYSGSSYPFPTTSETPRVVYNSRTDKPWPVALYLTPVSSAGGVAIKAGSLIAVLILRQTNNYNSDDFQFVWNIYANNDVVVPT
# pKd: −log10 of the molar value.
# Molecular target: T1, FimHtrJ96 (Escherichia coli, UniProt P08191)
# T1 construct: coding for the lectin domain of FimH (residues 1-158) with a C-terminal 6-histidine tag; made in house; host or cells: E. coli HB101 (lacking the fim operon), periplasmic extract, plasmid pPKL241
# Assay type: binding, uropathogenic E. coli strain J96
# Conditions: for pKd: displacement assay, FimHtrJ96; for ΔG°: Table 1, calculated from KD
# Experimental: To measure the dissociation constant for FimH:alkyl or aryl-mannoside binding, two different binding assays were developed. The first binding assay uses [^3H]-mannose. The amount of radioactively labeled mannose bound to FimHtrJ96 was measured at six different concentrations of [^3H]-mannose, and a hyperbolic curve fitted to the resulting data (FIG. 1A). FimHtrJ96 corresponds to the carbohydrate (mannose) binding domain of FimH from the uropathogenic E. coli strain J96. The dissociation equilibrium constant was determined from this graph at the concentration of mannose […], which corresponds to occupation of half of the binding sites.
# Surface Plasmon Resonance measurements were performed on a Biacore3000™. In a first experiment, the kinetic constants and maximal binding were determined for the FimH-antibody interaction. Next, a fixed concentration of FimH (close to the KD of the FimH-antibody interaction) in combination with varying concentrations of carbohydrate, were used to determine the dissociation equilibrium constant of the FimH-saccharide interaction in a competition experiment. Every measurement was repeated at least twice, including testing the variation between different protein and saccharide batches.
# To eliminate the possibility of different binding strength for full length FimH and FimHtrJ96, the binding of alpha-D-mannose to FimC:FimH complex was also measured. […] The inhibition of [^3H]-mannose binding was used in a displacement assay to determine the dissociation constant for a synthetic butyl mannoside by measuring the amount of [^3H]-mannose bound to the protein in the presence of increasing amounts of the inhibitor (FIG. 1B). […] To investigate the effect of sequential addition of methyl groups to the O1 oxygen of D-mannose, a series of alkyl mannosides were synthesized and the dissociation constants determined using the [^3H]-mannose displacement assay and by surface plasmon resonance (Table 1).
# Surface Plasmon Resonance measurements were performed on a Biacore3000™. The Fab fragments of a monoclonal antibody against FimH were covalently immobilised via lysines at 1000 Resonance Units (1000 pg ligand/mm^2) in flowcell Fc2 on a CM5 biasensor chip (BIAapplications Handbook, Biacore AB, Uppsala, Sweden). Immobilisation buffer was 100 mM NaAc pH 5.0 with 100 mM NaCl. The reference flowcell Fc1 was left blank.
# Binding of FimH to the immobilized antibody was measured with a Biacore 3000 instrument in running buffer (phosphate buffered saline with 0.005% surfactant P20 and 3 mM EDTA), on both flowcells Fc1 and Fc2 simultaneously, at a flow rate of 30 μl/min and at 25° C. Complete dissociation of FimH was done with running buffer before starting a new binding cycle. For all measurements, the association time was 3 minutes, the dissociation time was 30 min. All binding cycles were performed in duplicate, including a zero concentration cycle of FimH (injection of running buffer).
# In a first experiment, the kinetic constants, ka and kd, and the maximal binding Rmax, were determined for the FimH-antibody interaction (FimH concentrations (nM): 2000, 1000, 500, 250, 125, 62.5, 31.25, 15.625, 7.818, 3.911, 1.957, 0). All analyses were performed with the BIAeval software. A Langmuir binding isotherm with a 1:1 stoichiometry was fitted to the data, from which the kinetic constants and maximal binding were obtained.
# In the next experiment, samples containing a fixed concentration of FimH (close to the KD of the FimH-antibody interaction) in combination with varying concentrations of saccharide, were used to determine the dissociation constant of the FimH-saccharide interaction in a competition experiment. First, ten-fold dilutions of the saccharide solution were used to determine the concentration range for binding of the saccharide to FimH.
Substance,"ΔG° J96 (Table 3, calculated from KD) [kcal/mol]",pKd,ΔG° [kcal/mol]
"α1-3,α1-6 mannopentaose",-8.8,6.48,
ethylphenyl alpha-D-man [Ethylphenyl man],,7.07,-9.6
ethyl aminophenyl alpha-D-man [Ethyl aminophenyl man],,6.86,-9.4
